Laboratory results from patent US20250002487A1, “HETEROCYCLIC COMPOUNDS AND USES THEREOF” (Ventus Therapeutics U.S., Inc., priority 2021, published 2025).

Amino acid sequences for entries named in this document (tags omitted).
UniProt Q8N884, whole entry: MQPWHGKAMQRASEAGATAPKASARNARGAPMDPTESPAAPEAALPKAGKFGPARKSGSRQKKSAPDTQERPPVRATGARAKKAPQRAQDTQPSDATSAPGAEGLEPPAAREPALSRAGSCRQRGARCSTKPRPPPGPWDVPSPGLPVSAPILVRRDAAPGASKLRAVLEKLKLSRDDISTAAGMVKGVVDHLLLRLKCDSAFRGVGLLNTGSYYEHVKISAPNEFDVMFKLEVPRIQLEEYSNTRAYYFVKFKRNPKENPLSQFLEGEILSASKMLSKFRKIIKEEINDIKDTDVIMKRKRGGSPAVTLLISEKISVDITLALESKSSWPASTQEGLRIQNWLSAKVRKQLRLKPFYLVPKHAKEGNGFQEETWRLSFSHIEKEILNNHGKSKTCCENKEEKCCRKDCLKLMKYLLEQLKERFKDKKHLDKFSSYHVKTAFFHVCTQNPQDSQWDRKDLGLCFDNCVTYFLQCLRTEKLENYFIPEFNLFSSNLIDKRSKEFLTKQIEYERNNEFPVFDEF

Target: human-cGAS (h-cGAS) (Homo sapiens, UniProt Q8N884)
Test: hcGAS Kinase-Glo Assay
Type: biochemical
Settings: read-out: hcGAS potency IC50, 40 nM h-cGAS, 100 μM ATP, 100 μM GTP, 25 nM dsDNA, 3 h incubation
Method: In some embodiments, the compounds of the instant disclosure may be tested for their human-cGAS (h-cGAS) inhibition activity using the methodology reported in Lama et al., “Development of human cGAS-specific small molecule inhibitors for repression of double stranded DNA (dsDNA)-triggered interferon expression”, Nature Communications 10, Article number: 2261 (2019), incorporated herein by reference. hcGAS Kinase-Glo Assay Compounds were tested for their human-cGAS (h-cGAS) inhibition activity using the methodology reported in Lama et al., “Development of human cGAS-specific small molecule inhibitors for repression of double stranded DNA (dsDNA)-triggered interferon expression”, Nature Communications 10. Article number: 2261 (2019), which is herein incorporated by reference in its entirety, with slight changes to some conditions as shown in Table B. The results of the assays, expressed in IC50 ranges are reported in Table C with the following designations: A represents an IC50 value <0.1 μM; B represents an IC50 value ≥0.1 μM and <0.5 μM; C represents an IC50 value ≥0.5 μM and <1.0 μM; D represents an IC50 value ≥1.0 μM. [table]

| IC50 [nM] | SMILES |
| --- | --- |
| 500 to 1000 | CSc1nnc(NC(=O)c2nc(C3CCCCC3)no2)s1 |
| 500 to 1000 | CSc1nnc(NC(=O)c2nnc(C3CCCCC3)o2)s1 |
